# Reference: patent US9150544B2 (dated 2015)
# Chains of the proteins cited; added tags and fusions are not shown.
# UniProt P00740, whole entry partner, looked up: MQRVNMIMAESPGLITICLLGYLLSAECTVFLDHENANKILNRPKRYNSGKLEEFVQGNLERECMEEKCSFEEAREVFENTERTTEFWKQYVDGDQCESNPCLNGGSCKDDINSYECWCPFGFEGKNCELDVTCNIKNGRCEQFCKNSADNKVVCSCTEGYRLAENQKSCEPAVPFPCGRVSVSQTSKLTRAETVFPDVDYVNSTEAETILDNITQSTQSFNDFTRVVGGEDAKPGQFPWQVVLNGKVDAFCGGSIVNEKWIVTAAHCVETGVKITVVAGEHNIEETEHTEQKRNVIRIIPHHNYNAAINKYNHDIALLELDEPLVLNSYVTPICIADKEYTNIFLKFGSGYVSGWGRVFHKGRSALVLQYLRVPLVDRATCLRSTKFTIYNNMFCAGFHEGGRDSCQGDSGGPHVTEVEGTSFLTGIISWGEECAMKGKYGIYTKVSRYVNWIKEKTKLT
# Biological target: human factor IXa (Homo sapiens (Human), UniProt P00740)
# Experiment: biochemical
# Conditions: read-out: Imax IXa (percentage inhibition at the maximum concentration tested)
row,Compound,inhibition at 5 µM
1,"COC(=O)[C@@H](Cc1cc2ccnc(N)c2cc1OC(F)(F)F)N1CC[C@H](NS(=O)(=O)c2cnc(N(C)C)c(Cl)c2)C1=O [Compound 86, (R)-3-(1-Amino-7-trifluoromethoxy-isoquinolin-6-yl)-2-[(S)-3-(5-chloro-6-dimethylamino-pyridine-3-sulfonylamino)-2-oxo-pyrrolidin-1-yl]-propionic acid methyl ester]",50%
2,"CCCCOC(=O)[C@@H](Cc1cc2ccnc(N)c2cc1Cl)N1CC[C@H](NS(=O)(=O)c2cnc(N3CCCC3)s2)C1=O [Compound 93, (R)-3-(1-Amino-7-chloro-isoquinolin-6-yl)-2-[(S)-2-oxo-3-(2-pyrrolidin-1-yl-thiazole-5-sulfonylamino)-pyrrolidin-1-yl]-propionic acid butyl ester]",63%
3,"COC(=O)[C@@H](Cc1cc2ccnc(N)c2cc1C#N)N1CC[C@H](NS(=O)(=O)c2cnc(N3CCCC3)s2)C1=O [Compound 94, (R)-3-(1-Amino-7-cyano-isoquinolin-6-yl)-2-[(S)-2-oxo-3-(2-pyrrolidin-1-yl-thiazole-5-sulfonylamino)-pyrrolidin-1-yl]-propionic acid methyl ester]",58%
4,"CCOC(=O)[C@@H](Cc1cc2ccnc(N)c2cc1Cl)N1CC[C@H](NS(=O)(=O)c2cnc(N3CCCC3)s2)C1=O [Compound 84, (R)-3-(1-Amino-7-chloro-isoquinolin-6-yl)-2-[(S)-2-oxo-3-(2-pyrrolidin-1-yl-thiazole-5-sulfonylamino)-pyrrolidin-1-yl]-propionic acid ethyl ester]",60%
5,COC(=O)[C@@H](Cc1cc2ccnc(N)c2cc1Cl)N1CC[C@H](NS(=O)(=O)c2cnc(N3CCC3)s2)C1=O [Compound 85],63%
